Experimental data published in paper PMC7660780 (Journal of the American Heart Association: Cardiovascular …, 2020).

Experiment: Population pharmacokinetic model
Assay type: in vivo, human

NCC(=O)Nc1cncc(-c2nn3c(=O)cc(N4CCNCC4)nc3s2)c1 [RUC‐4]
CL/F (apparent total clearance), geometric mean (SC, All Subjects): 0.485 L/min
Vc/F (apparent central volume of distribution), geometric mean (SC, All Subjects): 48.4 L
apparent total clearance, geometric mean (cohort with aspirin): 0.484 L/min
apparent total clearance, geometric mean (cohort without aspirin): 0.487 L/min
